B1: Gamma-crystallin C (Homo sapiens), P07315 (parent)
chain: MGKITFYEDRAFQGRSYETTTDCPNLQPYFSRCNSIRVESGCWMLYERPNYQGQQYLLRRGEYPDYQQWMGLSDSIRSCCLIPQTVSHRLRLYEREDHKGLMMELSEDCPSIQDRFHLSEIRSLHVLEGCWVLYELPNYRGRQYLLRPQEYRRCQDWGAMDAKAGSLRRVVDLY
partner: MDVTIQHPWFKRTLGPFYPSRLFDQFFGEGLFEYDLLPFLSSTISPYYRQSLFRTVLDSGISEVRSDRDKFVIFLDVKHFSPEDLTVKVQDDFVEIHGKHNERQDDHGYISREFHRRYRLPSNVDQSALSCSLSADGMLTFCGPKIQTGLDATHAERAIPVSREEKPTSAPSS

Variants of: B1
Details: with cryaa_human CRYAA

Variant	effect of a mutation on the interaction
T5P	disrupting interaction

Source: IntAct's records for PubMed 12601044
